Where “and” joins values, the source holds several entries; their conditions need not be identical. Equal values may be shown once.
What was measured:
[1] = tested on: Huh-luc/neo-ET cells; experiment: Cellular toxicity by XTT dye reduction in Huh-luc/neo-ET cells; settings: second drug in combination with miravirsen (SPC3649); 95% confidence interval; median or individual values
[2] = tested on: HCV genotype Ib replicon (I389luc-ubi-neo/NS3-3′/ET) in Huh-luc/neo-ET cells; assay type: cell-based

Interferon alpha-2b: Interferon-a2b purchased from R&D Systems
Cytotoxicity, Antagonism vol [1]: 0 μM^2% and −8.9 μM^2% | Cytotoxicity, Synergy vol [1]: 0 μM^2% | Efficacy, Synergy vol [2]: 10.75/−38.2; μM^2% and 10.33/0 μM^2% | Efficacy, Antagonism vol ([2]; second drug in combination with miravirsen (SPC3649), 95% confidence interval, median (≧3 experiments) or individual values): 10.75/−38.2; μM^2% and 10.33/0 μM^2% | Interaction ([2]; second drug in combination with miravirsen (SPC3649), overall): Positive

From patent publication US20140113958A1, “HCV Combination Therapy” (priority 2011, published 2014)
